Screening results (PubChem)
Shown are actives, neighbours in structure and some others; about 16% of the full set was active somewhere.
DT40 TDP1 no CPT: qHTS for Inhibitors of human tyrosyl-DNA phosphodiesterase 1 (TDP1): qHTS in cells in absence of CPT; DT40 Tdp1-/- hTDP1 cells, no CPT, ATP luminescence, 48 h; Potency, µM (top dose mostly 46.2 µM), inactives show at the highest dose activity change, negative = growth inhibition, most hits filed as inhibitors; 420,000 tested, 15% active; AID 686978, 2013; note: potency is the fitted concentration of half-maximal effect; % is set by controls: 0 for no effect and ±100 for the full control effect; nearly all actives have a fitted effect of over 55% in size
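Luminescent ATP content (CellTiter-Glo) served as the growth readout. Knockout chicken DT40 cells expressing human TDP1 were exposed to compounds without camptothecin for a minimum 48 hr at 37 °C.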
miR-21 reporter: raises the signal of a miR-21 reporter; Potency, µM (doses to about 38.3 µM), inactives show top-dose reporter change, positive = more light; HeLa miR-21 FLuc reporter, luciferase, 48 h; AID 2288; 340,000 tested, under 10 active; active = well fitted rising curve with a large enough effect; inconclusive = small, poorly fitted or top-dose-only effect; inactive = no such curve, though single readings can be large or run the other way;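 further: % of control where 0% means no effect; miR-21 action dims this reporter so a rising signal means less miR-21 action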
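HeLa cells stably expressing CMV-driven firefly luciferase with a downstream miR-21 binding sequence, endogenously expressing miR-21, were treated with titrations (up to about 40uM final) for 48 hours at 37 degree Celsius. Luciferase luminescence was read after lysis.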
uPA surface inh: inhibitors of cell surface uPA generation; 330,000 tested, 0.31% active; cell surface uPA generation assay, qHTS; AID 540303; Potency, µM (highest dose often 38.3 µM), without a hit: at the top dose activity change, negative = inhibition, hits mostly inhibitors; active = well fitted inhibition curve with a large enough effect; inconclusive = small, poorly fitted or top-dose-only effect; inactive = no such curve, though single readings can be large or run the other way; tested in mouse RAW 264.7 cells; note: potency is the fitted concentration of half-maximal effect; % is set by controls: 0 for no effect and ±100 for the full control effect; nearly all actives have a fitted effect of over 55% in size
DT40 TDP1 CPT: DT40-hTDP1 cell growth loss with CPT; AID 686979; Potency, µM (series often up to 46.2 µM), for inactives: at the top dose activity change, negative = growth inhibition, actives largely listed as inhibitors; 420,000 tested, 12% active; chicken DT40 Tdp1-/-;hTDP1 cells + 20 nM CPT, ATP luminescence, 48 h; note: potency is the fitted concentration of half-maximal effect; % is set by controls: 0 for no effect and ±100 for the full control effect; nearly all actives have a fitted effect of over 55% in size
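Chicken DT40 Tdp1-/- cells complemented with human TDP1, 400 cells/well, exposed to compounds plus 20 nM camptothecin for at least 48 h at 37 C; viability read as ATP content by CellTiter-Glo luminescence.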
TDP1 inh: TDP1 (human) enzyme inhibition. recombinant TDP1, AlphaScreen DNA substrate cleavage. Potency, µM (titrated, usually from 130 µM), inactives show at the highest dose activity change, negative = inhibition, actives largely listed as inhibitors. 350,000 tested, 0.28% active; note: potency is the fitted concentration of half-maximal effect; % is set by controls: 0 for no effect and ±100 for the full control effect; nearly all actives have a fitted effect of over 40% in size
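Signal: AlphaScreen proximity between streptavidin donor and anti-FITC acceptor beads on intact substrate. Reaction: Tdp1 1 nM, substrate 15 nM final, 5 min RT after 15 min compound preincubation.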
The depositor's hits bear a star; ? = inconclusive; · = no result; [ ] = another dose, or the depositor's remark. Unless noted, calls come from the whole dose curve; as a rule, active = well fitted curve in the direction sought with a large enough effect; inconclusive = small, poorly fitted or top-dose-only effect, or another doubt; inactive = no such curve, though single readings can be large; an effect the other way counts as inactive or inconclusive.

Assay codes: A = DT40 TDP1 no CPT; B = miR-21 reporter; C = uPA surface inh; D = DT40 TDP1 CPT; E = TDP1 inh
Structure: CC(C)(C)C(=O)Nc1c2c(nn1-c1ccccc1)CSC2
  A: 23µM*; B: -3%; C: -1%; D: ?; E: 1%
Structure: O=C(COc1cccnc1[N+](=O)[O-])Nc1ccccc1Sc1ccccc1
  A: ?; B: -20%; C: -3%; D: ?; E: -3%
Structure: O=C(CSC1=NC2(CCCCC2)N=C1c1ccccc1)Nc1ccc2c(c1)OCCO2
  A: ?; B: -2%; C: -28%; D: ?; E: -8%
Structure: CCc1ccc(OC(C)c2nc(-c3ccc(-n4cccc4)cc3)no2)cc1 (configuration not stated)
  A: ?; B: -4%; C: ·; D: -48%; E: 6%
Structure: C=CCOc1nc2sc(C)c(C)c2c(=O)n1-c1ccccc1
  A: -30%; B: -12%; C: 12%; D: 5%; E: ·
Structure: Cc1cccc(C(=O)NNC2=C(C(=O)C(F)(F)F)CCC2)c1O
  A: 13µM*; B: -10%; C: 4%; D: 6.5µM*; E: 7%
Structure: Cc1ccccc1CN1CCN(C(=O)c2ccc(S(=O)(=O)NCc3ccco3)cc2)CC1
  A: ?; B: ·; C: ?; D: ?; E: 4%
Structure: COc1ccc(N2CCN(C(=O)c3ccc(S(=O)(=O)NCc4ccco4)cc3)CC2)cc1
  A: -21%; B: ·; C: -8%; D: -30%; E: 4%
Structure: O=C(CS(=O)(=O)Cc1ccccc1)N1CCN(Cc2ccc3c(c2)OCO3)CC1
  A: ?; B: -2%; C: -1%; D: ?; E: 7%
Structure: O=C(c1ccc(S(=O)(=O)NCc2ccco2)cc1)N1CCN(Cc2ccc3c(c2)OCO3)CC1
  A: 16µM*; B: 12%; C: -10%; D: ?; E: -1%
Structure: O=C(CCc1ccc(S(=O)(=O)NCc2ccccc2)cc1)N1CCN(Cc2ccc3c(c2)OCO3)CC1
  A: ?; B: 11%; C: ·; D: 32µM*; E: 7%
Structure: COc1ccc(CN2CCN(C(=O)c3ccc(S(=O)(=O)NCc4ccco4)cc3)CC2)cc1F
  A: ?; B: ·; C: ?; D: 9.2µM*; E: -11%
Structure: CN(CC(=O)Nc1ccccc1Cl)C(=O)COC(=O)c1ccccc1[N+](=O)[O-]
  A: -16%; B: ·; C: 1%; D: 0%; E: ·
Structure: CN(c1cccc(NC(=O)COc2ccc(Cl)cc2Cl)c1)S(C)(=O)=O
  A: ?; B: -45%; C: 0%; D: 21µM*; E: -5%[56.1 µM]
Structure: CN(c1cccc(NC(=O)CSc2ccc(Cl)cc2)c1)S(C)(=O)=O
  A: 11µM*; B: 14%; C: ·; D: 10µM*; E: -1%
Structure: O=C(NNC(=O)c1cc(-c2ccncc2)nc2ccccc12)c1ccccc1F
  A: -16%; B: ·; C: 3%; D: -13%; E: 1%
Structure: O=C(NCCNC(=O)c1cc(Cl)ccc1Cl)c1cnccn1
  A: -7%; B: 6%; C: 2%; D: -5%; E: 0%
Structure: O=C(NCCNC(=O)c1ccc(-c2cc(Cl)ccc2Cl)o1)c1cnccn1
  A: 21µM*; B: ·; C: ·; D: ?; E: ·
Structure: O=C(NCCNC(=O)c1ccc(-c2ccc(Cl)c(Cl)c2)o1)c1cnccn1
  A: 15µM*; B: -1%; C: -8%; D: ?; E: 5%
Structure: O=C(NCCCNC(=O)c1ccc(-c2cccc(Cl)c2)o1)c1cnccn1
  A: ?; B: -23%; C: -4%; D: -15%; E: ·
Structure: COc1ccc2nc(SC(C(=O)c3ccccc3)c3ccccc3)nc(C)c2c1 (configuration not stated)
  A: ?; B: -26%; C: -3%; D: 23µM*; E: -3%
Structure: Cc1nc(SC(C(=O)c2ccccc2)c2ccccc2)nc2ccccc12 (configuration not stated)
  A: ?; B: 10%; C: 3%; D: ?; E: 3%
Structure: N#Cc1ccccc1NC(=O)COC(=O)CSc1nc2ccccc2o1
  A: -18%; B: 3%; C: 4%; D: 0%; E: -6%
Structure: CCOC(=O)C(=CNNc1cccc(Cl)c1)C(=O)OCC
  A: 21µM*; B: -13%; C: -4%; D: 12µM*; E: -2%
Structure: CCOC(=O)c1c(NC(=O)Nc2cccc(Cl)c2)sc(C)c1C
  A: ?; B: -2%; C: 6%; D: -5%; E: 2%
Structure: CCCC(=O)N(c1ccc2oc(-c3ccccc3)c(C(=O)OCC)c2c1)S(=O)(=O)c1ccc(C)cc1
  A: 5.8µM*; B: -3%; C: ·; D: ?; E: -2%[12.3 µM]
Structure: CCOC(=O)c1c(-c2ccccc2)oc2ccc(OC(C)C(=O)O)cc12 (configuration not stated)
  A: -12%; B: 8%; C: -3%; D: 1%; E: ·
Structure: CCOC(=O)c1c(-c2ccccc2)oc2ccc(N(C(C)=O)S(=O)(=O)c3ccc(C)cc3)cc12
  A: 10µM*; B: 5%; C: ·; D: 8.2µM*; E: ·

One compound at a time, as listed above. Order of screens: DT40 TDP1 no CPT | miR-21 reporter | uPA surface inh | DT40 TDP1 CPT | TDP1 inh
COc1ccc(N2CCN(C(=O)c3ccc(S(=O)(=O)NCc4ccco4)cc3)CC2)cc1 across the screens: -21% | · | -8% | -30% | 4%
N#Cc1ccccc1NC(=O)COC(=O)CSc1nc2ccccc2o1 across the screens: -18% | 3% | 4% | 0% | -6%
